This is an account of results in article PMC6214487 (Journal of drug design and research, 2018).

This assay has as its system HIV-1JR-FL envelope pseudotyped virus. Description: Single-round infection assay, early-stage events. The following applies: compound present at infection of target cells, luciferase.

Take `CCn1ncc(CC(=O)NC(Cc2ccccc2)C(=O)N(C)c2ccccc2)c1C(F)F` (stereo not shown) [CX06, 2-(2-(5-(difluoromethyl)-1-ethyl-1H-pyrazol-4-yl)acetamido)-N-methyl-N,3-diphenylpropanamide]: the “Effect on early-stage events, infectivity of target cells” value is “displays effects in both the late, assembly and early, infective stages”.
